Assay results reported in patent US6500927B2 (priority 1998, dated 2002).

Legend:
MOR-1D = target: T1, MOR-1D (Mus musculus, UniProt P42866); type: binding; conditions: among MOR-1, MOR-1C, MOR-1E
T1 construct: The cDNA fragments containing the full length MOR-1 or the MOR-1 variants in pCRII-ToPo were subcloned into pcDNA3.1; expressed in transfected cells

[1] = test system: MOR-1 and the variants MOR-1C, MOR-1D, MOR-1E; conditions: MOR-1 and variants

Row | Compound | Affinity of MOR-1D compared with the other clones (MOR-1D) | Competition for 3H-DAMGO binding (in words) [1]
1 | β-endorphin: endogenous opioid peptide | highest affinity | –
2 | C[C@@H](NC(=O)[C@@H](N)Cc1ccc(O)cc1)C(=O)NCC(=O)N(C)[C@@H](Cc1ccccc1)C(=O)NCCO [DAMGO, [D-Ala^2, MePhe^4, Gly(ol)^5]enkephalin] | – | bind competitively
3 | [D-Pen^2, D-Pen^5]enkephalin [DPDPE] | – | ineffective
